This assay has as its target acyl carrier protein (ACP) purified from E. coli (E. coli) (UniProt P0A6A8).

With “acyl-ACP synthase purified from E. coli membranes (from UniProt P31119) (enzyme)”, the consumption of ACP in the synthesis of radiolabeled acyl-ACP (% of the ACP consumed) was 88.

Source of the values: patent US5945585.
